Measured values reported in paper PMC5048338, “Discovery of 4,6-disubstituted pyrimidines as potent inhibitors of the heat shock factor 1 (HSF1) stress pathway and CDK9” (Medchemcomm, 2016).

Tested on: U2OS cells
Experiment: SRB cell growth inhibition assay
Type: cell-based
Conditions: Homo sapiens, 96 h, read-out: SRB GI50

SMILES: CCc1cnn2c(NCc3ccc[n+]([O-])c3)cc(N3CCCC[C@H]3CCO)nc12 [Dinaciclib, dinaciclib]
- GI50: 6 nM
